Experimental data reported in patent US9446087B2, “Anti-resorptive and bone building dietary supplements and methods of use” (priority 2006, dated 2016).

System: Neonatal murine calvaria
Test: Calvarial Assay to Measure Bone Growth
Type: cell-based, Swiss white mice
Conditions: 50 μg/ml, positive control
Experimental: Neonatal murine calvaria from 4 day old Swiss white mice are excised, placed into BGJ media (Sigma), and cut in half along the midline suture. One milliliter of BGJ media supplemented with 0.1% bovine serum albumin (BSA) is added to each well of a 12 well tissue culture plate (Costar) to which the relevant factors or vehicles are added. Each half calvaria is placed on a stainless steel grid in the above media at the media/air interface. Usually 4 bones per experimental group are used. Recombinant BMP-2 (5 μg/ml), FGF (100 ng/ml) or insulin (10 μg/ml) can be used as a positive stimulator of bone formation. Factors to be tested are added on Day 0 (the day of dissection) and media is changed at 24 and 96 hours (if a 7 day assay is required). Calvaria are maintained in humidified air (5% Co2), at 37° C. Following the period of incubation, the calvaria are then removed and fixed overnight in 10% formalin. The calvaria are then decalcified in 14% EDTA overnight and are then embedded in paraffin wax. Sections are then cut, using a standard microtome, along the midline suture to reveal the coronal suture and the region posterior to this suture. […] The total and new bone area (expressed as mm^2), suture thickness (mm), and number of cells lining the bone surface are determined in the section posterior to the sagittal suture. […]

B1: BMP2: BMP-2 used as positive control in the calvarial assay (protein, UniProt P12643 283-396, looked up)
Bone morphogenetic protein 2: QAKHKQRKRLKSSCKRHPLYVDFSDVGWNDWIVAPPGYHAFYCHGECPFPLADHLNSTNHAIVQTLVNSVNSKIPKACCVPTELSAISMLYLDENEKVVLKNYQDMVVEGCGCR
In the case of B1, the “Calvarial Assay Results- Bone formation” value is reported as 8.50 ± 1.20 mm^2 × 10^−3.
